US20260335456A1, “ANTIBODY-DRUG CONJUGATE HAVING CAMPTOTHECIN-BASED DRUG LINKED TO ANTIBODY HAVING LOW ANTIGEN-BINDING AFFINITY THROUGH LINKER” (PINOTBIO, INC., priority 2022, published 2026)

Columns and labels:
MDA-MB-468 tumor model = test: In vivo efficacy in MDA-MB-468 model (EGFR ADCs); set-up: species or system mouse; settings: FIG. 21
[1] = tested on: HER-2-positive advanced or metastatic breast cancer, gastric cancer or other HER-2-expressing solid tumors; settings: 0.8 mg/kg to 8.0 mg/kg once every 3 weeks, cited from earlier work
[2] = tested on: advanced/metastatic breast cancer; settings: cited from earlier work

Substance: Cetuximab-CL2A-FL118: cetuximab ADC with CL2A-FL118 (Comparative Example 1) [reference compound]
- tumor regression (MDA-MB-468 tumor model): tumor regression

Substance: trastuzumab deruxtecan: humanized anti-HER2 antibody linked to deruxtecan through a stable linker
- dose-limiting toxicities ([1]; 22 patients): No dose-limiting toxicities were observed
- MTD [1]: not reached
- Grade 3 or higher adverse reactions ([2]; 5.4 mg/kg, 184 patients): 57.1%
- constipation, any grade ([2]; 5.4 mg/kg, 184 patients): 37.5%
- fatigue, any grade ([2]; 5.4 mg/kg, 184 patients): 49.8%
- hair loss, any grade ([2]; 5.4 mg/kg, 184 patients): 49.8%
- leukopenia, any grade ([2]; 5.4 mg/kg, 184 patients): 26.9%
- neutropenia, any grade ([2]; 5.4 mg/kg, 184 patients): 40.3%
- thrombocytopenia, any grade ([2]; 5.4 mg/kg, 184 patients): 24.9%
- discontinuation of medication due to adverse reactions ([2]; 5.4 mg/kg): 35.3%
- dosage reduction due to adverse reactions ([2]; 5.4 mg/kg): 23.4%
- interstitial lung disease as reason for discontinuation/reduction ([2]; 5.4 mg/kg): 5 patients
- treatment discontinuation due to adverse reactions ([2]; 5.4 mg/kg): 15.2%
- other safety risk ([2]; as with other HER-2 targeting ADCs): increased risk of embryo-fetal toxicity and left ventricular dysfunction
